The values that follow come from BindingDB's records for PubMed 2250662 (Glaxo Group Research, 1990).

The chains behind the UniProt entries cited, without tags or fusion partners. Where a name states a change or a piece, a line headed by the entry shows the natural chain unless it says otherwise.
UniProt P10980, whole entry: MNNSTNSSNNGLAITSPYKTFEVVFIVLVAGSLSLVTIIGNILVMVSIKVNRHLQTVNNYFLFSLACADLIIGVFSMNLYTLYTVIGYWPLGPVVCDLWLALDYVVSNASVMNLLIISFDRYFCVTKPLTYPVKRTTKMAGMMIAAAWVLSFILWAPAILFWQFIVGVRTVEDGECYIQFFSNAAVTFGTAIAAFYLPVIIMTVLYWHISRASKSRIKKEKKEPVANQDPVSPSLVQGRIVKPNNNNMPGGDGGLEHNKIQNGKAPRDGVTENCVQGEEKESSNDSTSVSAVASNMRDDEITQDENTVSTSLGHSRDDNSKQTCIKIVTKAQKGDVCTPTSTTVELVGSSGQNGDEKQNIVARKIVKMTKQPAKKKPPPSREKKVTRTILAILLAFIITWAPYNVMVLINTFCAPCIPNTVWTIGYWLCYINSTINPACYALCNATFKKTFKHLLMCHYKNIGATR
UniProt A0A5F9DUN4, whole entry: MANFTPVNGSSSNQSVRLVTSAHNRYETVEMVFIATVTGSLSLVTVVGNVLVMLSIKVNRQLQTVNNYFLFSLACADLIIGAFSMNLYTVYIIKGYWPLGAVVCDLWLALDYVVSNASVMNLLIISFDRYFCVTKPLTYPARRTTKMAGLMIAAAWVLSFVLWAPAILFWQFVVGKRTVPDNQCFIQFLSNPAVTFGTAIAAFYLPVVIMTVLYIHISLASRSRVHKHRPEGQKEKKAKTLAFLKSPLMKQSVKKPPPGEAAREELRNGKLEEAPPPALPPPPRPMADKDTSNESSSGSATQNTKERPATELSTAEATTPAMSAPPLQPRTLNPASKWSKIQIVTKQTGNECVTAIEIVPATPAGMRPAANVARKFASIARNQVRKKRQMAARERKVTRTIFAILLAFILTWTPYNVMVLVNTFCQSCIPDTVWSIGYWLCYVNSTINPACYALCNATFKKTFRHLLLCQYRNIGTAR
UniProt P08482: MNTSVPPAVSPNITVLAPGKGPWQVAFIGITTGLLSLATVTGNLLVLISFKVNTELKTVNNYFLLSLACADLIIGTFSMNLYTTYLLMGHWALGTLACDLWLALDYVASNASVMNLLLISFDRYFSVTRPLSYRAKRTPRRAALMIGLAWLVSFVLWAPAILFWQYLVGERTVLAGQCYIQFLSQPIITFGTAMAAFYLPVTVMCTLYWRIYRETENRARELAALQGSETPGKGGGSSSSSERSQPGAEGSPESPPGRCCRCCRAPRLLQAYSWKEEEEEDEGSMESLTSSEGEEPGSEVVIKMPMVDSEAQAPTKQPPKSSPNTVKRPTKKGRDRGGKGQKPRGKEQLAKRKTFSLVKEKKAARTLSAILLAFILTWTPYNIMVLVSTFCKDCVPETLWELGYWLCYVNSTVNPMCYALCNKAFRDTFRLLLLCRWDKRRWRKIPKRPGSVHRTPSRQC
UniProt P08483, whole entry: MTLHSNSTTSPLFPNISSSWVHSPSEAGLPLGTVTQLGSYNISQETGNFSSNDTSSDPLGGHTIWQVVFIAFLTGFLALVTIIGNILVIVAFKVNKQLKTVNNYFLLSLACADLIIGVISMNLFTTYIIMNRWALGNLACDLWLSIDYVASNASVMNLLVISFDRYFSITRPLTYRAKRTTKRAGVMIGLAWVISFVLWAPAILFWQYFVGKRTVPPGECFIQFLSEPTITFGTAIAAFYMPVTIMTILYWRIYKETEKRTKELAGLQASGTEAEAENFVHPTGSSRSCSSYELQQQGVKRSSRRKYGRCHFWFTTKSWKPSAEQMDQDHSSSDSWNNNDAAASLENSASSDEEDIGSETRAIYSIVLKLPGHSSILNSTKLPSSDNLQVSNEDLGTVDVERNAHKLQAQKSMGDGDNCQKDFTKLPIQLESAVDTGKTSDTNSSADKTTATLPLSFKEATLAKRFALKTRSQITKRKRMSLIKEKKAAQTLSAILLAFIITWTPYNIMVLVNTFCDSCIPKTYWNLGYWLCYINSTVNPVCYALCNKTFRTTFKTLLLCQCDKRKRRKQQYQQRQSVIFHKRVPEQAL

Structures are written as SMILES.

Test [1] addresses Muscarinic acetylcholine receptor M2 (Rattus norvegicus, UniProt P10980).
The target of test [2] is Muscarinic acetylcholine receptor (Oryctolagus cuniculus, UniProt A0A5F9DUN4).
Test [3] addresses Muscarinic acetylcholine receptor M1 (Rattus norvegicus, UniProt P08482).
Test [4] has as its target Muscarinic acetylcholine receptor M3 (Rattus norvegicus, UniProt P08483).

For the compound `CN1C2CC(OC(=O)C(CO)c3ccccc3)CC1C1OC12` (stereo unspecified) [3-hydroxy-2-phenyl-propionic acid 9-methyl-3-oxa-9-aza-tricyclo[3.3.1.0*2,4*]non-7-yl ester], the Ki in test [1] was found to be 1.41 nM. This counts as single-digit nanomolar.

Take `CN1[C@@H]2CC[C@H]1CC(OC(=O)[C@H](CO)c1ccccc1)C2` (stereo partly specified) [CAS_51-55-8]: the Ki in test [2] turned out to be 0.28 nM. This counts as sub-nanomolar.

`COc1ccccc1CNCCCCCCNCCCCCCCCNCCCCCCNCc1ccccc1OC` [METHOCTRAMINE] registered a Ki in test [3] of 25.1 nM.

Take `CC(C)[N+]1(C)[C@@H]2CC[C@H]1CC(OC(=O)[C@@H](CO)c1ccccc1)C2` (stereo partly specified) [NSC_3746]: the Ki in test [1] amounted to 0.36 nM; in test [3], 0.71 nM; in test [4] it was 0.37 nM.

The Ki is the equilibrium dissociation constant of an inhibitor or competing ligand from its target. A higher Ki goes with lower affinity.
